Reference: patent US20090099029A1, “Methods and substrates for conducting assays” (Invitrogen Corporation, priority 2005, published 2009)

B1: PDK1 (protein)
chain: MARTTSQLYDAVPIQSSVVLCSCPSPSMVRTQTESSTPPGIPGGSRQGPAMDGTAAEPRPGAGSLQHAQPPPQPRKKRPEDFKFGKILGEGSFSTVVLARELATSREYAIKILEKRHIIKENKVPYVTRERDVMSRLDHPFFVKLYFTFQDDEKLYFGLSYAKNGELLKYIRKIGSFDETCTRFYTAEIVSALEYLHGKGIIHRDLKPENILLNEDMHIQITDFGTAKVLSPESKQARANSFVGTAQYVSPELLTEKSACKSSDLWALGCIIYQLVAGLPPFRAGNEYLIFQKIIKLEYDFPEKFFPKARDLVEKLLVLDATKRLGCEEMEGYGPLKAHPFFESVTWENLHQQTPPKLTAYLPAMSEDDEDCYGNYDNLLSQFGCMQVSSSSSSHSLSASDTGLPQRSGSNIEQYIHDLDSNSFELDLQFSEDEKRLLLEKQAGGNPWHQFVENNLILKMGPVDKRKGLFARRRQLLLTEGPHLYYVDPVNKVLKGEIPWSQELRPEAKNFKTFFVHTPNRTYYLMDPSGNAHKWCRKIQEVWRQRYQSHPDAAVQ
modifications: left off: small tags and cut ends
B2: ERBB4 (protein)
chain: RRKSIKKKRALRRFLETELVEPLTPSGTAPNQAQLRILKETELKRVKVLGSGAFGTVYKGIWVPEGETVKIPVAIKILNETTGPKANVEFMDEALIMASMDHPHLVRLLGVCLSPTIQLVTQLMPHGCLLEYVHEHKDNIGSQLLLNWCVQIAKGMMYLEERRLVHRDLAARNVLVKSPNHVKITDFGLARLLEGDEKEYNADGGKMPIKWMALECIHYRKFTHQSDVWSYGVTIWELMTFGGKPYDGIPTREIPDLLEKGERLPQPPICTIDVYMVMVKCWMIDADSRPKFKELAAEFSRMARDPQRYLVIQGDDRMKLPSPNDSKFFQNLLDEEDLEDMMDAEEYLVPQAFNIPPPIYTSRARIDSNRSEIGHSPPPAYTPMSGNQFVYRDGGFAAEQGVSVPYRAPTSTIPEAPVAQGATAEIFDDSCCNGTLRKPVAPHVQEDSSTQRYSADPTVFAPERSPRGELDEEGYMTPMRDKPKQEYLNPVEENPFVSRRKNGDLQALDNPEYHNASNGPPKAEDEYVNEPLYLNTFANTLGKAEYLKNNILSMPEKAKKAFDNPDYWNHSLPPRSTLQHPDYLQEYSTKYFYKQNGRIRPIVAENPEYLSEFSLKPGTVLPPPPYRHRNTVV
modifications: left off: a dimerising Fc or GST

Test system: kinases of Table 6 on Myelin Basic Protein (MBP)
Test: Kinase assay using MBP substrate, ProQ Diamond stain (Table 6)
Assay type: biochemical
Settings: kinase printed on MBP-coated slide; 20 uM ATP, 30° C.; ProQ Diamond Microarray Stain; graded Strong/Weak/Negative

Molecule	MBP Kinase Activity
B1	Weak
B2	Negative
